The source of these data is PMC5670201 (Scientific Reports, 2017).

By UniProt entry, the sequences of proteins in these tests, tags left out. Residues count along the entry.
UniProt P02768, 25-609: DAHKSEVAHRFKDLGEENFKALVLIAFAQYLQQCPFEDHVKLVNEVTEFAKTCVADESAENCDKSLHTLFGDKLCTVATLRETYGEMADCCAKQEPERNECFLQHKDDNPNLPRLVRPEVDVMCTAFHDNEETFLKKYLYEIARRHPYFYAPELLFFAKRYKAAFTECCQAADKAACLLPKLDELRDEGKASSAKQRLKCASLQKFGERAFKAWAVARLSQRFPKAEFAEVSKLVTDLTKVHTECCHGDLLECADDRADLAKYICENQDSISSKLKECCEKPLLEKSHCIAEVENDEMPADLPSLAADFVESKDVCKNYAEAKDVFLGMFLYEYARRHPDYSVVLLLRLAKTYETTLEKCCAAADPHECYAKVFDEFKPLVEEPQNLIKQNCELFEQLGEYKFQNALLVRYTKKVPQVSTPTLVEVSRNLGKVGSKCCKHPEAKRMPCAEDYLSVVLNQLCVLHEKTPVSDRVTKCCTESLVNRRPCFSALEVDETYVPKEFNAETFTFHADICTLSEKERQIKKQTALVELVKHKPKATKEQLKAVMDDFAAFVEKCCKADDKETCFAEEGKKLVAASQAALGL

Series [1] deals with Human Serum Albumin (Homo sapiens, UniProt P02768). Put plainly: Biacore SPR, antibody variable domain peptides and antibodies against human serum albumin. The settings on record: for binding to human serum albumin: Biacore SPR screen, immobilized HSA and vice versa. The class given is binding. The text has this: The 3D structure of the positive variable region peptides were predicted by PEPFOLD 3.0 to compare to their beta hairpin structure within the full antibody[9]-[11] (Fig. 4d). […] Peptides were run in the pM-uM concentration range. […] (b) Multiple sequence alignment of the variable region peptides in question, performed by Clustal Omega. […] (d) 3D structure prediction of peptides in solution performed by PEP-FOLD 3.0, visualized in Chimera. […] Pembrolizumab included as a negative control.
Background: In SPR one partner is held on a chip, and binding of the other changes the refractive index at the surface.

Series [2] deals with T1, HSA Peptide 40 (Homo sapiens, UniProt P02768).
T1 construct: HSA 40 (479-496); purchased New England Peptide (Gardner, MA, USA)
Put plainly: biochemical. The series is classed as binding. The note with it: for binding to HSA Peptide 40: Biacore SPR screen, immobilized HSA Peptide 40 and vice versa. On the procedure: All peptides were run in the pM-uM concentration ranges. […] Short gaps in binding curves at transition times are from removal of solvent spikes during analysis. Binding kinetics were determined via Biacore Evaluation Software analysis of SPR sensograms. […] Structure, PDB 1BJ1, was visualized using UCSF Chimera.
The 3D structure of the positive variable region peptides were predicted by PEPFOLD 3.0 to compare to their beta hairpin structure within the full antibody[9]–[11] (Fig. 4d).
Peptides were run in the pM-uM concentration range. […] (b) Multiple sequence alignment of the variable region peptides in question, performed by Clustal Omega. […] (d) 3D structure prediction of peptides in solution performed by PEP-FOLD 3.0, visualized in Chimera. […] Pembrolizumab included as a negative control.
Peptides were re-suspended and stored in HBS running buffer at either 5 or 10 mg/ml, with up to 10% DMSO added as needed. All antibodies, peptides, as well as HSA, were immobilized on Biacore (GE Healthcare, Chicago, IL) CM5 chips via amine coupling according to manufacture protocol. Immobilization scouting was performed with pH 4.0–5.5 acetate at micromolar concentration ranges, to determine ideal immobilization conditions. […] All peptides and proteins were screened at multiple concentrations from pico to millimolarity, with an association time of 120 to 180 seconds and a dissociation time from 180 to 1200 seconds. Binding kinetics were determined using Biacore Evaluation Software and a 1:1 fit model.
The mixture was frozen, evaporated, and re-suspended in HPLC grade water with 0.1% trifluoroacetic acid. The digest was applied to a Waters X-Bridge Protein BEH C4 column (Waters, Milford, MA) and eluted off at a flow rate of 1 ml/min and a gradient of 0–60% Acetonitrile with 0.1% trifluroacetic acid over 60 minutes.

In the case of `CC(C)C[C@H](NC(=O)[C@@H](NC(=O)CNC(=O)[C@H](CCC(N)=O)NC(=O)CNC(=O)[C@H](Cc1c[nH]c2ccccc12)NC(=O)[C@@H](NC(=O)[C@H](CC(=O)O)NC(=O)[C@H](Cc1ccccc1)NC(=O)[C@H](Cc1ccc(O)cc1)NC(=O)[C@H](Cc1c[nH]c2ccccc12)NC(=O)[C@H](Cc1c[nH]cn1)NC(=O)[C@@H](N)CO)C(C)C)[C@@H](C)O)C(=O)N[C@H](C(=O)N[C@H](C(=O)N[C@H](C(=O)N[C@@H](CO)C(=O)N[C@@H](CO)C(=O)N[C@@H](C)C(=O)N[C@@H](CO)C(=O)N[C@H](C(=O)O)[C@@H](C)O)C(C)C)[C@@H](C)O)C(C)C` [BVP2], the “binding to human serum albumin” value in series [1] is “bound both analytes”. Besides, in series [2], the “binding to HSA Peptide 40” value was “bound both analytes”.
Regarding `CC(C)C[C@H](NC(=O)[C@@H](NC(=O)CNC(=O)[C@H](CCC(N)=O)NC(=O)CNC(=O)[C@H](Cc1c[nH]c2ccccc12)NC(=O)[C@@H](NC(=O)[C@@H](N)CC(=O)O)C(C)C)[C@@H](C)O)C(=O)N[C@H](C(=O)N[C@H](C(=O)N[C@H](C(=O)N[C@@H](CO)C(=O)N[C@@H](CO)C(=O)N[C@@H](C)C(=O)N[C@@H](CO)C(=O)O)C(C)C)[C@@H](C)O)C(C)C` [Bevacizumab Heavy Chain 12], in series [2], the Kd (as a rule, the free concentration of one partner at which half of the binding sites on the other are occupied at equilibrium, for simple one-to-one binding) amounted to 0.743 µM. Also, in series [2] (read-out: Kinetic Binding Parameters against HSA Peptide 40: kon), the kon – broadly, a measure of how fast the partners come together – is 26.3 M⁻¹ s⁻¹.
As to `CSCC[C@H](NC(=O)[C@H](C)NC(=O)[C@H](Cc1ccc(O)cc1)NC(=O)[C@H](Cc1ccccc1)NC(=O)CNC(=O)[C@H](CC(=O)O)NC(=O)CNC(=O)CNC(=O)[C@H](Cc1c[nH]c2ccccc12)NC(=O)[C@H](CCCNC(=N)N)NC(=O)[C@H](CO)NC(=O)[C@H](CS)NC(=O)[C@H](Cc1ccc(O)cc1)NC(=O)[C@@H](N)Cc1ccc(O)cc1)C(=O)N[C@@H](CC(=O)O)C(=O)N[C@@H](Cc1ccc(O)cc1)C(=O)N[C@@H](Cc1c[nH]c2ccccc12)C(=O)NCC(=O)N[C@@H](CCC(N)=O)C(=O)NCC(=O)O` [TVP1], the “binding to human serum albumin” value in series [1] was “bound both analytes”. In series [1] (human, Biacore SPR, CM5 amine coupling, peptide over immobilized HSA and vice versa, pM-uM, 1:1 fit, read-out: Kinetic Binding Parameters Against Human Serum Albumin: KD), the Kd was found to be 5.33e+06 pM. In addition, the “binding to HSA Peptide 40” value in series [2] was “bound both analytes”.
